Reference: patent publication US20160313251A1

Legend:
[1] = biological target: GLP-1 receptor endogenously expressed on RINm5F cells (rat islet-cell tumor line) (rat) (UniProt P32301); assay: cell-based or functional assay
[2] = biological target: glucagon receptor endogenously expressed on RINm5F cells (rat) (UniProt P30082); assay: cell-based or functional assay

EC50 of cAMP production in RINm5F cells [1] [nM]	EC50 of cAMP production (BRET, RG-cAMP sensor) in RINm5F cells [2] [nM]	Substance
0.5	–	Exendin 4 (from UniProt P26349) (peptide)
–	43	glucagon (from UniProt P01275 53-81) (peptide)
